The target of one experiment is T1, Arabidopsis HPPD (Arabidopsis thaliana, UniProt P93836).
T1 construct: made in house; host or cells: E. coli BL21 (DE3) codon+ RP
T1 sequence (P93836 1-445): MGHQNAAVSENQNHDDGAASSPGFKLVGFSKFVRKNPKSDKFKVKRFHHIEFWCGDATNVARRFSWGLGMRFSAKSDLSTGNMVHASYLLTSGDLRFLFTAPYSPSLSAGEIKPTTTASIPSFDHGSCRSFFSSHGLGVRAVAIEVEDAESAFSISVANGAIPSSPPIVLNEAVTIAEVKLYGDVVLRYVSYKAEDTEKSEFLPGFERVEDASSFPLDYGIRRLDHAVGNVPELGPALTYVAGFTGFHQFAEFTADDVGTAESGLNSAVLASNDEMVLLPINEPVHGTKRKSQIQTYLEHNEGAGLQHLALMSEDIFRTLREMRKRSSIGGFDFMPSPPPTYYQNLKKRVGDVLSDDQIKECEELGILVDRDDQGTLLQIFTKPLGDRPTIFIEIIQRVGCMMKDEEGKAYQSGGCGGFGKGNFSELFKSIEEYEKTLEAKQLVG
Nature of the experiment: Rate of binding (kon) by radiolabelled inhibitor and separation of bound from free. The text has this:
Alternatively estimates of kon values can be determined more directly by mixing HPPD with radio or otherwise labelled herbicide inhibitor and monitoring the progress of the binding reaction, optionally by rapidly isolating the enzyme inhibitor complex and/or by any one of a number of methods (for example fluorimetry, EPR, NMR, radiodetection etc). For example, the reaction with HPPD may be started by addition of radiolabelled herbicide, allowed to proceed for a series of different times and rapidly quenched by addition and mixing with a large excess of unlabelled inhibitor. In this case the extent of binding at different times may, for example, be monitored by using ultrafiltration, binding to filters or gel filtration to separate radiolabel-bound to HPPD from unbound label which fractions can then each be quantitated by scintillation counting.
When measuring kon via such measurements of physical binding it is important to note that the binding of most compounds versus some HPPD enzymes appears biphasic with half the sites binding quickly and then the remaining binding then occurring relatively very slowly. In such cases, it is the rapid initial binding phase, usually corresponding to rate constants in the range 0.1-4×10^5 M^−1s^−1, which provides the relevant rate constant. This corresponds to the value obtained from using enzyme assay-based methods since although only half the sites are initially bound, on the same time-scale essentially all of the HPPD catalytic activity is inhibited. It will be appreciated that within the scope of the current invention many more or less rigorous methods of making the desired kinetic comparisons, are possible which may not involve explicit determination of off rates and on rates but, based upon the same underlying principles, achieve the same selection result.
The measurements of koff are based on physical rather than assay-based measurements. Similarly, kon rates can also be measured by a direct physical method, in this case the use of radiolabelled inhibitor and physical separation of protein bound from free inhibitor. […] The rates of binding determined on the basis of measurement of the amount of radiolabelled inhibitor bound after various times of reaction are found to correlate very well with measurements based upon assay-based measurements of the rate of decline of enzyme activity.
An illustrative example of an experiment to measure the on rate of mesotrione binding to Arabidopsis HPPD follows. […] After stopping samples are quickly separated into protein-bound and protein-free fractions by rapid Gel filtration down a NAP5 Pharmacia column equilibrated in 50 mM BTP at pH 7 containing 0.1 M KCl and the radioactivity in the two fractions measured by liquid scintillation counting. […]

Experiment [1] relates to tobacco plants transformed to express wheat HPPD. Nature of the experiment: Glasshouse spray test, visible damage. The experiment is classed as in vivo. On the procedure:
(§1) Plants are 1) untransformed tobacco plants variety Samsun expressing the endogenous tobacco (control) HPPD gene, 2) tobacco plants transformed to express Pseudomonas HPPD according to the examples herein and 3) tobacco plants transformed to express Wheat HPPD also according to the examples herein.
(§2) Large numbers of plants are grown from seed in small pots in the glasshouse to the 5-7 leaf seedling stage and sprayed with a range of doses, suitably from 0.0 to 2000 g/ha, of different HPPD-inhibitor herbicides selected from compounds of Formula 1, 2, 3 and 4. Treatments are suitably Formulated in, for example, deionised water+0.5% Turbocharge™ surfactant or, alternatively, 50% acetone/water and applied at […] to a dozen or more replicates of each line and at each spray rate (where the plants were T1 plants (selfed progeny of primary transformants) and still segregating at normally 1:2:1) or, where, homozygous, 3-6 plants. The extent of visible damage in terms of bleaching of meristems and leaves, eventual necrosis and stunting of growth relative to unsprayed controls is assessed at ˜1 and 3 weeks after treatment. Data from susceptible segregants are excluded from the analysis. In summary, results obtained are as follows.

Experiment [2] relates to untransformed tobacco plants variety Samsun. Kind of experiment: Glasshouse spray test, visible damage. The class given is in vivo. The note with it: spray 0.0 to 2000 g/ha, assessed ~1 and 3 weeks after treatment. On the procedure: as §1, §2

The record followed here is US20090172831A1, “Methods for the production of plants resistant to HPPD herbicides” (Syngenta Limited, priority 2000, published 2009).

Take `CS(=O)(=O)c1ccc(C(=O)C2C(=O)CCCC2=O)c([N+](=O)[O-])c1` [Structure I, 2-(Nitro-4-methanesulphonylbenzoyl)-cyclohexane-1,3-dione]: the kon (in general, the second-order rate constant of association) was determined as 190000 M⁻¹ s⁻¹ at Arabidopsis HPPD (absence of glycerol); 110000 M⁻¹ s⁻¹ at Arabidopsis HPPD (in the presence of glycerol); 125000 M⁻¹ s⁻¹ at Arabidopsis HPPD (pH 7, 25 C, pH 7.0, in the presence of glycerol, initial rapid phase); 1.9e+06 M⁻¹ s⁻¹ at Arabidopsis HPPD (without 25% v/v glycerol).
In the case of `Cc1cc(C#N)ccc1C(=O)C1C(=O)C(C)(C)C(=O)C(C)(C)C1=O` [Structure VI, 2-[2-methyl-4-cyanobenzoyl]-4,4,6,6-tetramethylcyclohexane-1,3,5-trione], the “fold less susceptible of mesotrione than of the named herbicide” value in experiment [1] was > 16 fold. Moreover, the “fold more susceptible of the herbicide than of mesotrione” value in experiment [2] was < 4 fold.
